# Publication PMC3815676 (Journal of immunology (Baltimore, Md. : 1950), 2013)
# What was measured:
# Type in all cases: cell-based, NOD mouse
# [1] = test system: CD4 T cell clone BDC-5.2.9; conditions: 24 h
# BDC-5/S3.4 T cell clone = assay: Antigen assay: IFN-γ response of T cell clone
# BDC-9/S3.5 T cell clone = assay: Antigen assay: IFN-γ response of T cell clone
# [2] = clone (2 × 10^4) with PEC (2.5 × 10^4) and KS20 (1 μg/ml), IFN-γ by ELISA, positive response > 50 ng/ml, representative of two independent experiments
EC50 [1] [nM],Compound,IFN-γ response to KS20 (BDC-5/S3.4 T cell clone; [2]),concentration at which the clone responds to KS20 (BDC-5/S3.4 T cell clone; data not shown),IFN-γ response to KS20 (BDC-9/S3.5 T cell clone; [2]),concentration at which the clone responds to KS20 (BDC-9/S3.5 T cell clone; data not shown)
5,CC(C)C[C@H](NC(=O)[C@H](CCCNC(=N)N)NC(=O)[C@H](CCC(N)=O)NC(=O)[C@@H](NC(=O)[C@H](C)NC(=O)[C@@H]1CSSC[C@H](N)C(=O)N[C@@H](CC(N)=O)C(=O)N[C@@H]([C@@H](C)O)C(=O)N[C@@H](C)C(=O)N[C@@H]([C@@H](C)O)C(=O)N1)[C@@H](C)O)C(=O)N[C@@H](C)C(=O)N[C@@H](CC(N)=O)C(=O)N[C@@H](Cc1ccccc1)C(=O)N[C@@H](CC(C)C)C(=O)N[C@H](C(=O)N[C@@H](CCCNC(=N)N)C(=O)N[C@@H](CO)C(=O)N[C@@H](CO)C(=O)O)C(C)C [CS19],,,,
55,CC(C)C[C@H](NC(=O)[C@H](CCCNC(=N)N)NC(=O)[C@H](CCC(N)=O)NC(=O)[C@@H](NC(=O)[C@H](C)NC(=O)[C@@H]1CSSC[C@H](NC(=O)[C@H](CCCCN)NC(=O)[C@H](CCCNC(=N)N)NC(=O)[C@H](CCCCN)NC(=O)[C@@H](N)CC(=O)O)C(=O)N[C@@H](CC(N)=O)C(=O)N[C@@H]([C@@H](C)O)C(=O)N[C@@H](C)C(=O)N[C@@H]([C@@H](C)O)C(=O)N1)[C@@H](C)O)C(=O)N[C@@H](C)C(=O)N[C@@H](CC(N)=O)C(=O)N[C@@H](Cc1ccccc1)C(=O)N[C@@H](CC(C)C)C(=O)N[C@H](C(=O)N[C@@H](CCCNC(=N)N)C(=O)N[C@@H](CO)C(=O)N[C@@H](CO)C(=O)O)C(C)C [DS23],,,,
0.2,CC(C)C[C@H](NC(=O)[C@H](CCCNC(=N)N)NC(=O)[C@H](CCC(N)=O)NC(=O)[C@@H](NC(=O)[C@H](C)NC(=O)[C@@H]1CSSC[C@H](NC(=O)[C@@H](N)CCCCN)C(=O)N[C@@H](CC(N)=O)C(=O)N[C@@H]([C@@H](C)O)C(=O)N[C@@H](C)C(=O)N[C@@H]([C@@H](C)O)C(=O)N1)[C@@H](C)O)C(=O)N[C@@H](C)C(=O)N[C@@H](CC(N)=O)C(=O)N[C@@H](Cc1ccccc1)C(=O)N[C@@H](CC(C)C)C(=O)N[C@H](C(=O)N[C@@H](CCCNC(=N)N)C(=O)N[C@@H](CO)C(=O)N[C@@H](CO)C(=O)O)C(C)C [KS20],strongly activated,nanomolar concentrations,strongly activated,nanomolar concentrations
10,CC(C)C[C@H](NC(=O)[C@H](CCCNC(=N)N)NC(=O)[C@H](CCC(N)=O)NC(=O)[C@@H](NC(=O)[C@H](C)NC(=O)[C@@H]1CSSC[C@H](NC(=O)[C@@H](N)CCCCN)C(=O)N[C@@H](CC(N)=O)C(=O)N[C@@H]([C@@H](C)O)C(=O)N[C@@H](C)C(=O)N[C@@H]([C@@H](C)O)C(=O)N1)[C@@H](C)O)C(=O)N[C@@H](C)C(=O)N[C@@H](CC(N)=O)C(=O)N[C@@H](Cc1ccccc1)C(=O)N[C@@H](CC(C)C)C(=O)N[C@H](C(=O)O)C(C)C [KV17],,,,
